Sequences of proteins named here, by UniProt entry; tags and fusion partners are left off.
UniProt P50406, whole entry: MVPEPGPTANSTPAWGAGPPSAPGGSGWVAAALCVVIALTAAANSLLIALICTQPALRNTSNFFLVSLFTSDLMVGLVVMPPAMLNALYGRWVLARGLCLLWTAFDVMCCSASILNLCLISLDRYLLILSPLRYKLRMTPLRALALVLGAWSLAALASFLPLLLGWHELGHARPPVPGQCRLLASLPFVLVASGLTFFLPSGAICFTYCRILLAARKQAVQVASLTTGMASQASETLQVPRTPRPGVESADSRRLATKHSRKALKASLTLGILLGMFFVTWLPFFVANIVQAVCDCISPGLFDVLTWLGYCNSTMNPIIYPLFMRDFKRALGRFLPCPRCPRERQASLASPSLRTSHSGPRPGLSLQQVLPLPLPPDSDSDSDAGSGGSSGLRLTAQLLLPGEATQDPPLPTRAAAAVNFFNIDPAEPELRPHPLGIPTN

According to ChEMBL document CHEMBL1157614, “5-Cyclic amine-3-arylsulfonylindazoles as novel 5-HT6 receptor antagonists” (J Med Chem, 2010):

Biological target: 5-hydroxytryptamine receptor 6 (Homo sapiens, UniProt P50406)
Experiment: Antagonist activity at human cloned 5HT6 receptor expressed in human HeLa cells assessed as intracellular cAMP formation by RIA
Assay type: functional, cell-based

Structure (SMILES): NC1CCN(c2ccc3[nH]nc(S(=O)(=O)c4cccc5ccccc45)c3c2)CC1
- IC50: 28 nM
